Structures are written as SMILES.

Drawing on ChEMBL document CHEMBL1255487, “Preclinical evaluation of the antifolate QN254, 5-chloro- N'6'-(2,5-dimethoxy-benzyl)-quinazoline-2,4,6-triamine, as an antimalarial drug candidate” (Antimicrob Agents Chemother, 2010), this text covers inhibition for 2 molecules.

For this assay, the system named is Plasmodium berghei. Put plainly: Antimalarial activity against Plasmodium berghei ANKA infected in perorally dosed NMRI mice (Mus musculus) assessed as reduction in parasitemia administered as single dose measured on day 3 postinfection. Type of assay: functional.

On to `COc1ccc(OC)c(CNc2ccc3nc(N)nc(N)c3c2Cl)c1`, for which the inhibition result was “Dose dependent effect”.

Take `C[C@H]1[C@H](OC(=O)CCC(=O)O)O[C@@H]2O[C@@]3(C)CC[C@H]4[C@H](C)CC[C@@H]1[C@@]24OO3` [ARTESUNATE]: the inhibition result was “Dose dependent effect”.
